# Yeast mating assay B: variants of the scFv Ab-14

The measurements come from Li et al. 2023 (doi:10.1038/s41467-023-39022-2) through the FLAb antibody collection.

All variants were tested on one target, the spike HR2 peptide PDVDLGDISGINAS (SARS-CoV-2).

Parent: Ab-14, a human scFv built as VH, the linker GGGGSGGGGSGGGGS, VL. Only the CDRs of the heavy chain vary.
VH: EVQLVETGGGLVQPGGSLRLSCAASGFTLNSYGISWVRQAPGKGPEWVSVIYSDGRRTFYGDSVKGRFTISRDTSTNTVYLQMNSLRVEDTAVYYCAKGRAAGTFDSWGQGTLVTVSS
VL: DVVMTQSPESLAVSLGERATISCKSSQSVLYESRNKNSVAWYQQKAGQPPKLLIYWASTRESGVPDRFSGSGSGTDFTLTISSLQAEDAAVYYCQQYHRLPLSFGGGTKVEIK

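The starting antibody came from a phage panning campaign against this peptide. This is the validation round: designs drawn from the data on random variants, tested in the same kind of assay. Group labels follow the data file (Ctrl: baseline library sampled from a position-specific scoring matrix, with some repeated check sequences; En: ensemble of fine-tuned language models; GP: Gaussian process model; GPLM: also part of the Gaussian process libraries; HC: hill climbing; Gen: genetic algorithm; Gibbs: Gibbs sampling; a sequence that several methods proposed may carry one label only). In AlphaSeq, yeast of one mating type display the scFv and yeast of the other type display the target. The frequency of each diploid, read from paired DNA barcodes, reflects how well the two displayed proteins bind. Read counts were normalised to the haploid input and turned into Kd by a linear fit to BCL2-family pairs of known affinity, for each replicate. Mating was done six times.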

Substitutions are numbered in sequence along the VH above, starting at 1 (not Kabat).
This list holds designs with at most six substitutions.
Values are log10 of the apparent Kd in nM; lower means stronger binding.
A mean of the replicates is given; it leaves out those without a signal.
"nd" marks a missing value. The strain was present, yet no cells mated with the target were sequenced in that replicate, which points to weak or no binding.
The list is sorted by this average, lowest first, undetected variants last.
Some sequences occur more than once in the pool; their replicates are listed entry by entry, parted by semicolons.
In the paper, a design with two or fewer of six values counts as a poor binder.
Values of this round are not directly comparable with the first-round values of the same sequences.
The parent sequence was in this pool as ten entries: three were never detected, three once, and four in most replicates, with averages from 0.34 to 2.37.
Nonspecific signal, from three strains lacking the peptide, appeared in 1% of pairings of all heavy chain designs, centred on 2.08 (5% of these signals below 0.84); values are not corrected for it. The control count says in how many pairings with the empty strains this scFv gave a signal.

With T28N S53A R56Y A101E S107T [Ctrl] the result was -0.05, 0.10, -0.29, -0.18, -0.27, 0.04 (mean -0.11; controls 0 of 18). The variant F27T S53A G61S R100Q [Ctrl] gave 0.05, -0.02, 0.16, -0.21, -0.15, 0.06 (mean -0.02; controls 0 of 18). For T28S G61A R100Q A101T S107N [GPLM_Gen], the assay gave 0.00, -0.05, 0.07, 0.02, 0.02, 0.52 (mean 0.10; controls 0 of 18). With T28E S53A R100A [GP_Gen] the result was 0.32, 0.06, 0.11, -0.09, -0.14, 0.34 (mean 0.10; controls 0 of 18). With T28S F59A [Ctrl+GPLM_Gen] the result was 0.55, 0.24, 0.15, 0.27, 0.32, 0.65; -0.09, 0.27, -0.09, 0.26, 0.09, -0.51 (mean 0.17; controls 1 of 36).

The variant T28E G61V R100S A101T S107A [GP_Gibbs] gave 0.56, 0.37, 0.15, 0.03, -0.01, 0.33 (mean 0.24; controls 1 of 18). The variant T28D G61I A101I [GP_Gen] gave 0.20, 0.20, 0.41, 0.34, 0.09, 0.39 (mean 0.27; controls 0 of 18). For T28S R100W A101M [GPLM_Gibbs], the assay gave -0.12, -0.12, nd, 0.85, 0.32, 0.48 (mean 0.28; controls 0 of 18). The variant T28E R100I A101T S107K [GP_Gibbs] showed 0.49, 0.98, -0.39, -0.30, 0.19, 0.97 (mean 0.32; controls 0 of 18). The variant T28D G61K S63T A101T [GP_Gibbs] gave 0.70, 0.49, nd, 0.25, 0.29, -0.09 (mean 0.33; controls 0 of 18).

The variant T28P S31E S53A R100Y [GP_HC] gave 0.48, -0.06, 1.60, 0.12, 0.01, 0.02 (mean 0.36; controls 0 of 18). The variant T28G G61S R100H [GP_HC] gave 0.46, 0.29, 0.72, 0.14, 0.35, 0.21 (mean 0.36; controls 0 of 18). The variant T28D G61A S63D [GPLM_Gen] gave 0.56, 0.55, 0.03, 0.33, 0.35, 0.60 (mean 0.41; controls 1 of 18). With T28H S53A [GPLM_Gen] the result was 0.65, 0.52, 0.37, 0.11, 1.03, 0.31 (mean 0.50; controls 0 of 18). The variant T28M F59A [Ctrl] gave 0.55, 0.54, 0.64, 0.60, 0.40, 0.61 (mean 0.56; controls 0 of 18).

The variant G26Y T28S F59A A101N [GP_Gibbs] showed 0.87, 0.66, 0.42, 0.68, 0.57, 0.49 (mean 0.62; controls 1 of 18). For T28W S31E G61A R100T [GP_Gibbs], the assay gave 0.47, 0.56, 0.27, 0.65, 0.74, 1.17 (mean 0.64; controls 1 of 18). For G61D R100Q A101L [En_HC], the assay gave 1.02, 0.43, 0.93, 1.21, 0.58, 0.36 (mean 0.75; controls 1 of 18). With N30E D106T S107Q [GP_HC] the result was 1.44, 0.50, 0.14, 0.76, 0.89, 0.81 (mean 0.76; controls 1 of 18). The variant T28N G61V R100Q A101V [GPLM_Gibbs] showed 0.70, 0.55, nd, 0.59, 0.69, 1.37 (mean 0.78; controls 0 of 18).

For T28S R100N S107W [GP_Gibbs], the assay gave nd, nd, 1.20, nd, 0.38, nd (mean 0.79; controls 0 of 18). The variant F59A S63D R100K [Ctrl] showed 0.77, 0.33, 0.96, 0.41, 1.07, 1.17; 0.20, 0.18, 0.75, 0.52, 0.79, 1.02; 0.87, 1.34, 0.45, 1.12, 0.94, 1.35; 0.91, 1.18, 1.03, 0.68, 1.03, 0.74 (mean 0.83; controls 2 of 72). For T28S S31E G61H T104F [GP_HC], the assay gave 0.58, 0.78, 0.66, 1.06, 1.43, 0.82 (mean 0.89; controls 0 of 18). For T28E G61Q S63D A101T [GP_Gen], the assay gave 0.99, 1.12, 0.42, 0.28, 1.57, 0.97 (mean 0.89; controls 0 of 18). For N30L T58V A101V S107M [Ctrl], the assay gave nd, nd, nd, 0.90, nd, nd (controls 0 of 18).

For T28Q S31E R100Q S107V [GP_Gen], the assay gave 1.48, 0.47, 1.42, 1.08, 1.18, 0.85 (mean 1.08; controls 0 of 18). With T28S S63H R100Q A101T [GP_Gen] the result was 1.01, 0.60, 1.71, 0.46, 0.79, 2.17 (mean 1.12; controls 0 of 18). The variant T28D S63Q A101M [GP_Gen] showed 0.69, 1.57, 0.47, nd, 1.23, 1.78 (mean 1.15; controls 1 of 18). For T28D R56M G61S A101Q [GP_Gen], the assay gave 1.23, 0.63, 1.16, 1.24, 1.63, 1.25 (mean 1.19; controls 1 of 18). The variant T28D S31T G61S R100E [GPLM_Gibbs] gave 1.81, 1.25, 1.36, nd, 1.05, 1.52 (mean 1.40; controls 0 of 18).

For N30D R100K S107Q [GP_HC], the assay gave 1.20, 1.47, 0.98, nd, 1.51, 2.02 (mean 1.44; controls 0 of 18). With T28S G61I R100A A101T [GP_Gibbs] the result was 0.93, 1.92, nd, 1.76, 2.40, 0.39 (mean 1.48; controls 0 of 18). The variant T28H G61A S63D R100N [GP_Gen] showed 1.49, 1.25, nd, 1.47, 1.52, 2.06 (mean 1.56; controls 0 of 18). The variant T28S S31M G61I R100Q [GPLM_Gen] gave 1.35, 0.68, nd, 2.65, 1.58, nd (mean 1.56; controls 0 of 18). The variant T28Q S31E A101Y [GP_Gen] gave 1.69, 1.80, 1.22, 1.78, 1.70, 1.58 (mean 1.63; controls 0 of 18).

The variant T28D G61V S63R A101T [GP_Gen] gave 2.19, nd, 1.56, 1.35, 2.29, 1.35 (mean 1.75; controls 0 of 18). The variant R56M G61S G99Q A101L [Ctrl] showed nd, nd, 1.70, 1.97, nd, nd (mean 1.84; controls 0 of 18). The variant T28N R100K A101S [GPLM_Gibbs] gave nd, 2.40, nd, 1.24, 1.64, 2.23 (mean 1.88; controls 0 of 18). For T28S S31W F59A [GP_Gibbs], the assay gave 1.70, 2.78, 1.70, 1.68, 1.68, 2.25 (mean 1.96; controls 1 of 18). For F27E S107L [Ctrl], the assay gave 1.71, nd, nd, nd, nd, 2.67 (mean 2.19; controls 2 of 18).

For N30S S31E S53A R100K T104Y [Ctrl], the assay gave nd, nd, 2.83, nd, nd, nd (controls 2 of 18). For N30R R56L A101V [Ctrl], the assay gave nd, nd, nd, nd, nd, nd (controls 0 of 18). The variant F27Y T28N S31E I34V [Ctrl] gave nd, nd, nd, nd, nd, nd (controls 0 of 18). For G26H T28Q S31E A101T [GPLM_Gibbs], the assay gave nd, nd, nd, nd, nd, nd (controls 0 of 18). The variant Y32Q S53M [Ctrl] showed nd, nd, nd, nd, nd, nd (controls 0 of 18).

The variant G61D R100Q A101V T104K [GP_HC] showed nd, nd, nd, nd, nd, nd (controls 1 of 18). For N30M G61V R100Q A101L [GPLM_HC], the assay gave nd, nd, nd, nd, nd, nd (controls 0 of 18). For N30E S63A D106R [Ctrl], the assay gave nd, nd, nd, nd, nd, nd (controls 0 of 18). The variant G26H T28S G61H R100E [GP_Gibbs] showed nd, nd, nd, nd, nd, nd (controls 0 of 18). The variant N30Q R100K T104K [Ctrl] showed nd, nd, nd, nd, nd, nd (controls 0 of 18).

With S31D F59Q A101T D106W [GP_HC] the result was nd, nd, nd, nd, nd, nd (controls 1 of 18). The variant N30D G61A A101Q D106H [GP_HC] gave nd, nd, nd, nd, nd, nd (controls 0 of 18).

5 of these entries, quoted again:

T28P S31E S53A R100Y [GP_HC]: 0.48, -0.06, 1.60, 0.12, 0.01, 0.02 (mean 0.36; controls 0 of 18).
T28G G61S R100H [GP_HC]: 0.46, 0.29, 0.72, 0.14, 0.35, 0.21 (mean 0.36; controls 0 of 18).
T28D S31T G61S R100E [GPLM_Gibbs]: 1.81, 1.25, 1.36, nd, 1.05, 1.52 (mean 1.40; controls 0 of 18).
T28N R100K A101S [GPLM_Gibbs]: nd, 2.40, nd, 1.24, 1.64, 2.23 (mean 1.88; controls 0 of 18).
Y32Q S53M [Ctrl]: nd, nd, nd, nd, nd, nd (controls 0 of 18).